Measured values from patent US9266877B2, “Apoptosis-inducing agents for the treatment of cancer and immune and autoimmune diseases” (priority 2011, dated 2016).

Key:
[1] = Single Dose Pharmacokinetics, oral bioavailability; assay type: in vivo, Sprague-Dawley rats; conditions: Rat p.o. dose, 5 mpk
[2] = tested on: FL5.12 cells transfected with Bcl-XL; assay: FL5.12 Cellular Assay (cell viability, CellTiter-Glo); assay type: cell-based; conditions: mouse FL5.12 cells transfected with Bcl-XL, IL-3-depleted, 3% FBS assay media, 24 hours; read-out: FL5.12 Bcl-xL, IL3, EC 50

SMILES | F (%), dose [1] | EC50 [2] [µM]
O=C(Nc1nc2ccccc2s1)c1cccc2c1CN(c1ccc(-c3cnn(CC4(C(F)(F)F)CCCCC4)c3)c(C(=O)O)n1)CC2 [Example 74, 6-[8-(1,3-benzothiazol-2-ylcarbamoyl)-3,4-dihydroisoquinolin-2(1H)-yl]-3-(1-{[1-(trifluoromethyl)cyclohexyl]methyl}-1H-pyrazol-4-yl)pyridine-2-carboxylic acid] | 23, 5 mpk % | –
O=C(Nc1nc2ccccc2s1)c1cccc2c1CN(c1ccc(-c3cnn(Cc4cccc(N5CCCC5)n4)c3)c(C(=O)O)n1)CC2 [Example 22, 6-[8-(1,3-benzothiazol-2-ylcarbamoyl)-3,4-dihydroisoquinolin-2(1H)-yl]-3-(1-{[6-(pyrrolidin-1-yl)pyridin-2-yl]methyl}-1H-pyrazol-4-yl)pyridine-2-carboxylic acid] | 27, 5 mpk % | –
O=C(Nc1nc2ccccc2s1)c1cccc2c1CN(c1ccc(-c3cccc(OC4CCCCC4)c3F)c(C(=O)O)n1)CC2 [Example 119, 6-[8-(1,3-benzothiazol-2-ylcarbamoyl)-3,4-dihydroisoquinolin-2(1H)-yl]-3-[3-(cyclohexyloxy)-2-fluorophenyl]pyridine-2-carboxylic acid] | 54, 5 mpk % | –
Cc1c(-c2ccc(N3CCc4cccc(C(=O)Nc5nc6ccccc6s5)c4C3)nc2C(=O)O)cc(C#N)n1CC1(N2CCCCC2)CCCCC1 [Example 131, 6-[8-(1,3-benzothiazol-2-ylcarbamoyl)-3,4-dihydroisoquinolin-2(1H)-yl]-3-(5-cyano-2-methyl-1-{[1-(piperidin-1-yl)cyclohexyl]methyl}-1H-pyrrol-3-yl)pyridine-2-carboxylic acid] | 11, 5 mpk % | –
Cc1c(-c2ccc(N3CCc4cccc(C(=O)Nc5nc6ccccc6s5)c4C3)nc2C(=O)O)cnn1C[C@@H]1C[C@@H]2C=C[C@H]1C2 [Example 91, 6-[8-(1,3-benzothiazol-2-ylcarbamoyl)-3,4-dihydroisoquinolin-2(1H)-yl]-3-{1-[(1R,2R,4R)-bicyclo[2.2.1]hept-5-en-2-ylmethyl]-5-methyl-1H-pyrazol-4-yl}pyridine-2-carboxylic acid] | 16, 5 mpk % | 0.03
COCCCC1(Cn2ncc(-c3ccc(N4CCc5cccc(C(=O)Nc6nc7ccccc7s6)c5C4)nc3C(=O)O)c2C)CCCCCC1 [Example 147, 6-[8-(1,3-benzothiazol-2-ylcarbamoyl)-3,4-dihydroisoquinolin-2(1H)-yl]-3-(1-{[1-(3-methoxypropyl)cycloheptyl]methyl}-5-methyl-1H-pyrazol-4-yl)pyridine-2-carboxylic acid] | 37, 5 mpk % | –
COCCC1(Cn2ncc(-c3ccc(N4CCc5cccc(C(=O)Nc6nc7ccccc7s6)c5C4)nc3C(=O)O)c2C)CCCCC1 [Example 90, 6-[8-(1,3-benzothiazol-2-ylcarbamoyl)-3,4-dihydroisoquinolin-2(1H)-yl]-3-(1-{[1-(2-methoxyethyl)cyclohexyl]methyl}-5-methyl-1H-pyrazol-4-yl)pyridine-2-carboxylic acid] | 44, 5 mpk % | –
O=C(Nc1nc2ccccc2s1)c1cccc2c1CN(c1ccc(-c3cnn(Cc4ccccc4Cl)c3)c(C(=O)O)n1)CC2 [Example 25, 6-[8-(1,3-benzothiazol-2-ylcarbamoyl)-3,4-dihydroisoquinolin-2(1H)-yl]-3-[1-(2-chlorobenzyl)-1H-pyrazol-4-yl]pyridine-2-carboxylic acid] | 24, 5 mpk % | –
O=C(Nc1nc2ccccc2s1)c1cccc2c1CN(c1ccc(-c3cnn(C4CCc5ccccc54)c3)c(C(=O)O)n1)CC2 (centres unmarked) [Example 37, 6-[8-(1,3-benzothiazol-2-ylcarbamoyl)-3,4-dihydroisoquinolin-2(1H)-yl]-3-[1-(2,3-dihydro-1H-inden-1-yl)-1H-pyrazol-4-yl]pyridine-2-carboxylic acid] | 29, 5 mpk % | –
COCCC(c1ccccc1)n1cc(-c2ccc(N3CCc4cccc(C(=O)Nc5nc6ccccc6s5)c4C3)nc2C(=O)O)cn1 (centres unmarked) [Example 93, 6-[8-(1,3-benzothiazol-2-ylcarbamoyl)-3,4-dihydroisoquinolin-2(1H)-yl]-3-[1-(3-methoxy-1-phenylpropyl)-1H-pyrazol-4-yl]pyridine-2-carboxylic acid] | 33, 5 mpk % | –
